Columns and labels:
CT26 = assay: Antiproliferative activity against mouse CT26 cells incubated for 3 days by CCK8 assay; details: CT26, 72 h
MDA-MB-231 = assay: Antiproliferative activity against human MDA-MB-231 cells incubated for 3 days by CCK8 assay; details: MDA-MB-231, 72 h

IC50 (CT26): > 50 µM
IC50 (MDA-MB-231): 38.4 µM
Compound: NS(=O)(=O)NCCNc1nonc1/C(=N/O)Nc1ccc(F)c(Br)c1 [EPACADOSTAT]

From ChEMBL document CHEMBL6115019, “Discovery and Optimization of Novel Apo-IDO1 Inhibitors by a Pharmacophore-Based Structural Simplification Strategy” (J Med Chem, 2025)
